We go through 1 substance from patent publication US11040106B2, “Conjugates of kinase inhibitors and cyanine dyes” (priority 2018, dated 2021).

By UniProt entry, the sequences of proteins in these tests, tags left out. Residues count along the entry.
UniProt P02768, 25-609: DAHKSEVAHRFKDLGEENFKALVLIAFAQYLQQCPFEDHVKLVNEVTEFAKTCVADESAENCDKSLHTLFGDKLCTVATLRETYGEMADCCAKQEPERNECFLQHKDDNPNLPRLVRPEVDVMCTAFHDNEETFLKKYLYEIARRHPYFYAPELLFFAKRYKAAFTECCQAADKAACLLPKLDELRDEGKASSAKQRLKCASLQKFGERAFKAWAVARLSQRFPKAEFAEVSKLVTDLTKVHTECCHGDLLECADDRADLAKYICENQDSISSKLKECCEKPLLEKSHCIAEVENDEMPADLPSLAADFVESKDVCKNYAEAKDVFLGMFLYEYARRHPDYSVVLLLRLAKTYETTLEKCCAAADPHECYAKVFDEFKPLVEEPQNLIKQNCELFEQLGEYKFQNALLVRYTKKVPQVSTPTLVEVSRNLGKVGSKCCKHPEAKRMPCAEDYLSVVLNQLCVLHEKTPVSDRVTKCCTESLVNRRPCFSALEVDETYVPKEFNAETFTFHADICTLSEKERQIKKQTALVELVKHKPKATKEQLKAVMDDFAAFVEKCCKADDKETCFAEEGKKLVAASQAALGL

Data set [1] has as its system U87-MG cells. The experiment in a line: Cytotoxicity of ICG, MHI-148 and QCy, 72 h in the dark, AlamarBlue. From the text: Cytotoxicity of QCy was studied using U87-MG cells (a glioblastoma multiforme line).
Data set [2] has as its target HSA (Homo sapiens, UniProt P02768). The experiment in a line: Covalent binding / reaction of cyanines with HSA (LC/MS, ESI MS, NIR-fluorescent gel). As to conditions: HEPES buffer pH 7.4, 37° C. On the procedure:
FIGS. 33A to 33D show kinetics of a, 1, c, 4, d, 5; e, 6 in 1 M HEPES buffer pH 7.4. […] The kinetics was examined on C, 18 column using Agilent 1200 series LC/MS at 600 nm.
FIGS. 34A and 34B show mass spectra of a, free HSA and b, 1 bound to HSA. HSA: 1 (2.5:1); buffer 1 M HEPES.
In a control experiment, human serum albumin (HSA) was reacted with 2.5 equivalents of 1-Cl at 37° C. in 1 M HEPES buffer. This 1-Cl:albumin molar ratio was selected because it is approximately that used in cell culture experiments to probe uptake of this dye.
To test this assertion the experimental design was modified in the following way.

“Also recorded” adds a separate entry of the source.

Take Indocyanine green [ICG]: the “cytotoxicity (in words)” value in data set [1] was “not significantly cytotoxic up to 80 μM; also recorded: not very toxic until 80 μM”. In addition, the “covalent binding / reaction with HSA” value in data set [2] is “do not react with HSA”.
